Legend:
[1] = biological target: T1, GABA transporter 4 (Mus musculus) (UniProt P31650); assay: Inhibition of mouse GAT4 expressed in HEK293 cells assessed as remaining [3H]GABA uptake at 100 uM preincubated for 25 mins followed by [3H]GABA/unlabeled GABA addition measured after 4 mins by liquid scintillation counting analysis; type: cell-based
T1 sequence (whole entry): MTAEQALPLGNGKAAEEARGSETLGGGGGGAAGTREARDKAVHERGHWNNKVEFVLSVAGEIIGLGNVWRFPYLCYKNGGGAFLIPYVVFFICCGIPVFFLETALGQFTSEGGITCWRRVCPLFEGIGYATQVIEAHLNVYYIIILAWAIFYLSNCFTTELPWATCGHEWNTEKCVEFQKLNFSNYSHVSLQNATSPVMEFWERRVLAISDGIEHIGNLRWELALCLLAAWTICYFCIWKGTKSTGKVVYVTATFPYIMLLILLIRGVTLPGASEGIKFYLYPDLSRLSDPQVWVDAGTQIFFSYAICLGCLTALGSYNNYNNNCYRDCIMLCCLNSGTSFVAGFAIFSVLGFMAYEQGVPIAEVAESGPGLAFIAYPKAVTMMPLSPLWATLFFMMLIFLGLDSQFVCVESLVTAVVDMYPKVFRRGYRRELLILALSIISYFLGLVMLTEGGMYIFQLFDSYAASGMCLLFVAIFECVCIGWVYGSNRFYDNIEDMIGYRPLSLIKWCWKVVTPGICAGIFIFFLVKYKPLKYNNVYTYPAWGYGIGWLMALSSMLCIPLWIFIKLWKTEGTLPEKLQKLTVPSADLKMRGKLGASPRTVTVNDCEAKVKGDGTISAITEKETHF

[2] = system: Sodium- and chloride-dependent GABA transporter 2 (Mus musculus); assay: Inhibition of mouse GAT3 expressed in HEK293 cells assessed as remaining [3H]GABA uptake at 100 uM preincubated for 25 mins followed by [3H]GABA/unlabeled GABA addition measured after 4 mins by liquid scintillation counting analysis
[3] = system: Sodium- and chloride-dependent betaine transporter (Mus musculus); assay: Inhibition of mouse GAT2 expressed in HEK293 cells assessed as remaining [3H]GABA uptake at 100 uM preincubated for 25 mins followed by [3H]GABA/unlabeled GABA addition measured after 10 mins by liquid scintillation counting analysis

Row | Activity [1] | Activity [2] | Activity [3] | SMILES
1 | 65% | 65% | 91.2% | CN1CC[C@H](CC/C=C/c2ccccc2Cc2ccccc2)[C@@H](C(=O)O)C1 (racemic)
2 |  | 79.8% | 61.2% | CN1CC[C@H](CCCC#Cc2ccccc2Cc2ccccc2)[C@@H](C(=O)O)C1 (racemic)
